In patent US20220370565A1 (SHANGHAI INSTITUTE OF BIOLOGICAL PRODCCTS CO., LTD., priority 2019, published 2022):

Test system: human breast cancer BT-474
Experiment: subcutaneous transplanted tumors of human breast cancer BT-474 in nude mice
Format: in vivo
Conditions: Herceptin 5 mg/kg IV (first dose doubled), D 0, 3, 7, 10, 14, 17
Method: The indicators of tumor inhibition experiments in mice were to investigate the effect of drugs on tumor growth, and the specific indicators were T/C % or the rate of tumor growth inhibition TGI (%).
The diameter of the tumor was measured with a vernier caliper twice a week, and the formula for calculating the tumor volume (V) was: V=½xaxb^2, wherein a and b represented the length and width, respectively.
T/C(%)=(T−T0)/(C−C0)×100,
wherein, T and C were the tumor volumes at the end of the experiment; T0 and C0 were the tumor volumes at the beginning of the experiment. • The rate of tumor growth inhibition (TGI) (%)=100−T/C (%).
When the tumor regressed, the rate of tumor growth inhibition (TGI) (%) was =100−(T−T0)/T0×100
If a tumor was smaller than the initial volume, i.e., T<T0 or C<C0, it was defined as partial regression (PR) of the tumor; if a tumor disappeared completely, it was defined as complete regression (CR) of the tumor.
At the end of the experiment (e.g., D21), reaching the experimental endpoint, or the tumor volume reached 1,500 mm^3, the animals were sacrificed after CO2 anesthesia, and then the tumors were dissected and photographed.
Nude mice were subcutaneously inoculated with 1×10^7 human breast cancer BT-474 cells. After the tumor grew to 100-150 mm^3, the animals were grouped according to tumor volume (D0). Mice were administered subcutaneously (SC) or intravenously (IV), twice a week (BIW); the administration volume was 10 mL/kg; the solvent group was administered with the same volume of “solvent” (normal saline); specific dosage and administration regimen were shown in Table 3. The tumor volumes were measured twice a week, the mice were weighed, and the data were recorded.
Two-tailed Student's t-test was used to compare tumor volumes between the two groups, and P<0.05 was defined as a statistically significant difference.

“Herceptin: Trastuzumab injection, humanized anti-Her2 monoclonal antibody purchased from Roche Pharmaceuticals [reference compound]” was tested, and the “% T/C D 20” value was 43%, the “Mean tumor volume D 20 SEM” value was 514.2 ± 113.4 mm^3 and the “Tumor inhibition rate % D 20” value was 57%. The “Mean tumor volume D 0 SEM” value (baseline at grouping) was 93.6 ± 2.4 mm^3.
